Results reported in ChEMBL document CHEMBL5331121, “Preferred Conformation-Guided Discovery of Potent and Orally Active HIF Prolyl Hydroxylase 2 Inhibitors for the Treatment of Anemia” (J Med Chem, 2023).

The chains behind the UniProt entries cited, without tags or fusion partners. Where a name states a change or a piece, a line headed by the entry shows the natural chain unless it says otherwise.
UniProt Q9GZT9: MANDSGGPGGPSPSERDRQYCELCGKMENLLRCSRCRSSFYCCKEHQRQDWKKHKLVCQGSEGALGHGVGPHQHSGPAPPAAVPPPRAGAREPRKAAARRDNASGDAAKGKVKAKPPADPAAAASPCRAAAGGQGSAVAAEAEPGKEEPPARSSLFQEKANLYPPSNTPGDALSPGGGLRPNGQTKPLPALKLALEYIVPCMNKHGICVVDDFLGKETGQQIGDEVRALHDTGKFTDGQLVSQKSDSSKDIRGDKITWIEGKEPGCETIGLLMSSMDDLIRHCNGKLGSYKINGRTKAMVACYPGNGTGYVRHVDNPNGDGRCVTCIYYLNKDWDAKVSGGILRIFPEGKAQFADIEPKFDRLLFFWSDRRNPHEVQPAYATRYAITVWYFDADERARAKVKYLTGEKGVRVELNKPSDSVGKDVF

Target: Egl nine homolog 1 (Homo sapiens, UniProt Q9GZT9)
Test: Binding affinity to […] PHD2 (181 to 426 residues) (unknown origin) by fluorescence polarization assay

- IC50: 257 nM
SMILES: O=C(O)CNC(=O)c1ncc(-c2cccc(Cl)c2)cc1O
